# Test results from PubChem BioAssay (NCI).
# “And” between values parts separate entries of the source, which are not always exact repeats. Equal values may be shown once. The list shows a part of the results, in another mix than the full data. The source made the active and inactive calls. No stated cut-off is given here; in the data, active means growth inhibition above about 70%; inactive means the rest.
# Tests used:
# [1] = NCI Yeast Anticancer Drug Screen. Data for the rad50 strain (AID 155);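 further: 0% = growth of vehicle-only cultures of the same strain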; conditions: S. cerevisiae rad50 strain growth inhibition; at 50.0 µM; hits give high values
# [2] = NCI Yeast Anticancer Drug Screen. Data for the mec2-1 strain (AID 157); conditions: S. cerevisiae mec2-1 strain, at 50.0 µM, hits give high values
# [3] = NCI Yeast Anticancer Drug Screen. Data for the sgs1 mgt1 strain (AID 161);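 further: 0% = growth of cultures given vehicle only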; conditions: S. cerevisiae sgs1 mgt1 strain, at 50.0 µM, hits give high values
# [4] = NCI Yeast Anticancer Drug Screen. Data for the cln2 rad14 strain (AID 165);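 further: 0% = growth equal to vehicle treated cultures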; conditions: S. cerevisiae cln2 rad14 strain, at 50.0 µM, hits give high values
# [5] = NCI Yeast Anticancer Drug Screen. Data for the bub3 strain (AID 167); conditions: S. cerevisiae bub3 mutant strain, at 50.0 µM, hits give high values
# [6] = NCI Yeast Anticancer Drug Screen. Data for the mlh1 rad18 strain (AID 175); conditions: S. cerevisiae mlh1 rad18 strain growth inhibition; at 50.0 µM; hits give high values
SMILES,growth inhibition [1],growth inhibition [2],growth inhibition [3],growth inhibition [4],growth inhibition [5],growth inhibition [6]
CN1C(=O)N(C)P12(Cl)N(C)C(=O)N2C,inactive: 20.5%,inactive: -4.25%,inactive: 9.2%,inactive: 19.3%,inactive: 17.4%,inactive: 24.1%
[N-]=[N+]=NC(COC(=O)c1cc([N+](=O)[O-])cc([N+](=O)[O-])c1)c1ccccc1 (centres undefined),inactive: -10.3%,inactive: -16.1%,inactive: 6.2%,inactive: -32.6%,inactive: -0.55%,inactive: 1.5%
CCCCSP1(SCCCC)=NP(Cl)(Cl)=NP(Cl)(Cl)=N1,inactive: 4.3%,inactive: -55.6%,inactive: -6.85%,inactive: -28.3%,inactive: 3.85%,inactive: -9.1%
CCc1ccc(S(=O)(=O)N(CCCl)CCCl)cc1,inactive: -15.4%,inactive: -9.75%,inactive: 0.75%,inactive: -38.5%,inactive: 49.3%,inactive: 1.5%
CN(C)CC(=O)c1ccc2c(ccc3ccccc32)c1,inactive: 33.3%,inactive: 6.05%,inactive: 42.8%,inactive: 1%,inactive: 3.8%,inactive: 24.4%
C=CCC[P+](CC)(c1ccccc1)c1ccccc1,inactive: 51.2%,inactive: 20.6%,inactive: -2.65%,inactive: -29.6%,inactive: 15.6%,inactive: 6.3%
O=[N+]([O-])c1ccc(NCCSSCCNc2ccc([N+](=O)[O-])cc2[N+](=O)[O-])c([N+](=O)[O-])c1,inactive: -21%,inactive: 15.4%,inactive: 22.4%,inactive: 27.9%,inactive: 8.95%,inactive: 14.8%
FC(Cl)C(F)(F)Sc1ccc(Cl)cc1 (centres undefined),inactive: -21.7%,inactive: -35.5%,inactive: -24.6%,inactive: -18.1%,inactive: -41%,inactive: -36.8%
CCOC(=O)NC(C)(CCC(C)(NC(=O)OCC)P(=O)(O)Nc1ncccn1)P(=O)(O)Nc1ncccn1 (centres undefined),inactive: 0.6%,inactive: 6.65%,inactive: 3.35%,inactive: -6.45%,inactive: 8.5%,inactive: 0.45%
COC(=O)CC[N+]1(C)CC1,inactive: 28.6%,inactive: 9%,inactive: 24.4%,inactive: -31.4%,inactive: -8%,inactive: 25.8%
ClP(c1ccccc1)c1ccccc1,inactive: 19.8%,inactive: -10.9%,inactive: -6.1%,inactive: 14.6%,inactive: -13.8%,inactive: 29%
CC(=O)N(CCCc1c(C)nc(N)[nH]c1=O)Cc1ccccn1,inactive: -4%,inactive: -15.9%,inactive: 2.6%,inactive: -33%,inactive: -5.5%,inactive: -5.4%
CCOC(=O)NC(=S)N(C)P(=S)(OCC)N(C)C(=S)NC(=O)OCC,inactive: 4.7%,inactive: -1.45%,inactive: 24.9%,inactive: -7.4%,inactive: 13.3%,inactive: -21.6%
C[CH2][Pb]([C]#N)([CH2]C)[CH2]C,active: 94.3%,active: 94.5%,active: 98%,active: 86.9%,active: 96.8%,active: 96.3%
O=[N+]([O-])c1ccc(-c2ccccc2[N+](=O)[O-])c([N+](=O)[O-])c1,inactive: 31.5%,inactive: 16.7%,inactive: 7.95%,inactive: 14.4%,inactive: 16.9%,inactive: 40.6%
CS(=O)(=O)OC1CSCC1OS(C)(=O)=O (centres undefined),inactive: -3.35%,inactive: 19.4%,inactive: 18.1%,inactive: -22.6%,inactive: 1.65%,inactive: 9.45%
Cc1ccc(C(C)(C)O)c(CN(C)C)c1C,inactive: 22.9%,inactive: 17.1%,inactive: 34.2%,inactive: 16.1%,inactive: -8.7%,inactive: 10.3%
CC(C)OC(=O)N1N=C(OC(C)C)OP12=NC(c1ccccc1)=NN2C (centres undefined),inactive: 1.5%,inactive: -0.6%,inactive: -11.6%,inactive: -6.1%,inactive: -2.2%,inactive: 9.15%
CCOP(=O)(NC1CCCCC1)OCC,inactive: -10.8%,inactive: -34.2%,inactive: 9.3%,inactive: 1.85%,inactive: -3%,inactive: 15.8%
O=P1(N(CCCl)CCCl)NCc2ccccc2O1 (centres undefined),inactive: -0.25%,inactive: 27.4%,inactive: 40%,inactive: -0.25%,inactive: 45.2%,inactive: 6.7%

SMILES,growth inhibition [1],growth inhibition [2],growth inhibition [3],growth inhibition [4],growth inhibition [5],growth inhibition [6]
CC(C)(C)OP(OC(C)(C)C)OC(C)(C)C,inactive: 2.6%,inactive: -15.8%,inactive: -5.75%,inactive: -14.9%,inactive: 9.6%,inactive: 1.9%
O=C(CCC(=O)OCCNc1ccc([N+](=O)[O-])cc1[N+](=O)[O-])OCCNc1ccc([N+](=O)[O-])cc1[N+](=O)[O-],inactive: -4.7%,inactive: -7.45%,inactive: -19.4%,inactive: 11.2%,inactive: -4.6%,inactive: -12.9%
ClCCNCc1ccc2c(c1)OCO2,inactive: -32.9%,inactive: -19.5%,inactive: -23.1%,inactive: -6.2%,inactive: -20.6%,inactive: -37.2%
CCCc1cc(C)cc2nc(-c3ccccc3)oc12,inactive: 12.6%,inactive: 1.25%,inactive: 3.4%,inactive: -7.5%,inactive: 1.2%,inactive: 5.35%
Cc1ccc(S(=O)(=O)CN(CCCl)CCCl)cc1,inactive: 26.9%,inactive: 10.8%,inactive: 32.8%,inactive: 22.5%,inactive: 19.9%,inactive: 29.6%
C[C@H](N[N+](=O)[O-])C(N)=O,inactive: 7.65%,inactive: -4.45%,inactive: 22.9%,inactive: 11.1%,inactive: 22.4%,inactive: 22.4%
CCOP(=S)(N=C(N)N)OCC,inactive: -8.9%,inactive: -6.5%,inactive: -0.9%,inactive: -3.25%,inactive: 0.6%,inactive: -2.65%
Cc1cc(C)cc(OP(=O)(Cl)Oc2cc(C)cc(C)c2)c1,inactive: -15.1%,inactive: -42.5%,inactive: -25.4%,inactive: -7.55%,inactive: -48%,inactive: -10.9%
O=C(O)c1cccc(N(CCCl)CCCl)c1,inactive: 16.6%,inactive: -16.6%,inactive: -10.9%,inactive: 23.3%,inactive: -11.7%,inactive: 14.3%
C[As](C)SC1OC(CO)C(O)C(O)C1O (centres undefined),inactive: 8.2%,inactive: 13.7%,inactive: 3.8%,inactive: 18.6%,inactive: 14.7%,inactive: 31.6%
C=NNc1ccc([N+](=O)[O-])cc1[N+](=O)[O-],inactive: 18.4%,inactive: 17.2%,inactive: 17.6%,inactive: 15.2%,inactive: -2.65%,inactive: 16.6%
O=C(CSc1ccc([N+](=O)[O-])cc1[N+](=O)[O-])c1ccc([N+](=O)[O-])cc1,inactive: 5.25%,inactive: 26.7%,inactive: 15.4%,inactive: -7.05%,inactive: 30.8%,inactive: 13.5%
Nc1c([N+](=O)[O-])cc(Cc2cc([N+](=O)[O-])c(N)c([N+](=O)[O-])c2)cc1[N+](=O)[O-],inactive: 31.8%,inactive: 7.95%,inactive: 11.9%,inactive: 13.7%,inactive: -6.1%,inactive: 16.1%
CCCCCCCCCCCC(=O)OCC(COP(=O)(Oc1ccccc1)N(CCCl)CCCl)OC(=O)CCCCCCCCCCC (centres undefined),inactive: 3.5%,inactive: -2.25%,inactive: -12.8%,inactive: -4.95%,inactive: -1.7%,inactive: -0.65%
CCCCCCC(C)OP(O)OC(C)CCCCCC (centres undefined),inactive: 2%,inactive: 19.6%,inactive: 0.9%,inactive: -21.8%,inactive: 23.3%,inactive: 18.4%
n1[nH]nc2c1c1n[nH]nc1c1n[nH]nc21,inactive: -31.7%,inactive: -35.4%,inactive: -29.1%,inactive: -12.3%,inactive: -31.6%,inactive: -19.4%
N#CCCOP(=O)(N(CCCl)CCCl)N1CC1 (centres undefined),active: 82.5%,inactive: 60.3%,active: 91.4%,inactive: 48.5%,active: 93.7%,active: 73.8%
O=[N+]([O-])c1ccc(N=Nc2c(O)[nH]c3ccc([N+](=O)[O-])cc23)c([N+](=O)[O-])c1,inactive: -13.9%,inactive: -15.2%,inactive: -8.8%,inactive: 4.9%,inactive: -33.5%,inactive: -40.6%
O=P1(N(CCCl)CCCl)NC(c2ccccc2)CCO1 (centres undefined),inactive: -15.4% and inactive: -16.8%,inactive: -9.15% and inactive: 27.9%,inactive: -18.4% and inactive: 4.15%,inactive: -7.05% and inactive: 21.4%,inactive: -6% and inactive: -11.1%,inactive: -40% and inactive: -50.1%
